Assay results taken from patent US20140328918A1, “METHODS OF TREATING A SUBJECT AND RELATED PARTICLES, POLYMERS AND COMPOSITIONS” (CERULEAN PHARMA INC., priority 2010, published 2014).

Assay: Lyophilization and reconstitution of PEGylated nanoparticles: appearance and particle size (Zetasizer)
Type: physicochemical
Conditions: nanoparticles A, lyoprotectant 100 mg/mL

Dv90 (polymer 26.05 mg/mL (3.8:1)): 124 nm
Dv90 (sucrose cycle, polymer 31.25 mg/mL (3.2:1)): 124 nm
SMILES: OC[C@H]1O[C@@](CO)(O[C@H]2O[C@H](CO)[C@@H](O)[C@H](O)[C@H]2O)[C@@H](O)[C@@H]1O [Sucrose, sucrose]
